Laboratory results as given in PubChem BioAssay (EPA / NIEHS).
“And” between values parts separate entries of the source, which are not always exact repeats. Equal entries are not always repeated. The entries are a selection whose mix differs from that of the whole data set. Inconclusive results are not listed. Some compounds were tested as several samples or in several runs, with calls that do not always agree. The source made the active and inactive calls. The calls were made as follows, unless noted: active = hit-call score of the fitted dose curve at least 0.9, where 1 is the maximum; inactive = score below 0.9.

The chains behind the UniProt entries cited, without tags or fusion partners. Where a name states a change or a piece, a line headed by the entry shows the natural chain unless it says otherwise.
UniProt P10242: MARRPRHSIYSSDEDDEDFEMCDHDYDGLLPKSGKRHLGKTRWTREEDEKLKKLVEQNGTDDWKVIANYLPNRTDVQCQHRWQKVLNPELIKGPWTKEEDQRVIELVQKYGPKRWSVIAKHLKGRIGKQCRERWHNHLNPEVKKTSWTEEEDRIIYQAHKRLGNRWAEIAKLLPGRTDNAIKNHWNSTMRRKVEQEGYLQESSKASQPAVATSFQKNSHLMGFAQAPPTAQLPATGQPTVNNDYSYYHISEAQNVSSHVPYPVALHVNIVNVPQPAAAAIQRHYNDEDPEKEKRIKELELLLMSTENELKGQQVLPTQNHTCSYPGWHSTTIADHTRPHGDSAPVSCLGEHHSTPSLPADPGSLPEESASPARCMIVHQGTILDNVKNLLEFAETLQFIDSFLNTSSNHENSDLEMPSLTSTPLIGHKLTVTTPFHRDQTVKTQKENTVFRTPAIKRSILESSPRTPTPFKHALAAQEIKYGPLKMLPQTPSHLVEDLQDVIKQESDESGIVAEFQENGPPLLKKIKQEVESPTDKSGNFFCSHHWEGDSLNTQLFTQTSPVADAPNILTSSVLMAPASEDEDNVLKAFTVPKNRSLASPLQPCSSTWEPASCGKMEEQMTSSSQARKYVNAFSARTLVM
UniProt Q16656: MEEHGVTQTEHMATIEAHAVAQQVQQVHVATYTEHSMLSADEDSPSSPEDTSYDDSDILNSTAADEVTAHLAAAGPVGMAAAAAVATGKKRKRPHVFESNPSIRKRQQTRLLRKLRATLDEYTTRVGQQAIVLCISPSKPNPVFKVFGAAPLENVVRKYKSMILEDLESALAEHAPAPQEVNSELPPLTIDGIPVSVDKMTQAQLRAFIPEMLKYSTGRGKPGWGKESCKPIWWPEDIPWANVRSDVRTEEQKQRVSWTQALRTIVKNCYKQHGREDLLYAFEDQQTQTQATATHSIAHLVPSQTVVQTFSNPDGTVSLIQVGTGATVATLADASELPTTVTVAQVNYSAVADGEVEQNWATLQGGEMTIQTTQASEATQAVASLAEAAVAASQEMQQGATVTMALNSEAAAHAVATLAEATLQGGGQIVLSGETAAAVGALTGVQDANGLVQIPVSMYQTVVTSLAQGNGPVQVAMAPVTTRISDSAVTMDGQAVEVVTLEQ
UniProt P01106: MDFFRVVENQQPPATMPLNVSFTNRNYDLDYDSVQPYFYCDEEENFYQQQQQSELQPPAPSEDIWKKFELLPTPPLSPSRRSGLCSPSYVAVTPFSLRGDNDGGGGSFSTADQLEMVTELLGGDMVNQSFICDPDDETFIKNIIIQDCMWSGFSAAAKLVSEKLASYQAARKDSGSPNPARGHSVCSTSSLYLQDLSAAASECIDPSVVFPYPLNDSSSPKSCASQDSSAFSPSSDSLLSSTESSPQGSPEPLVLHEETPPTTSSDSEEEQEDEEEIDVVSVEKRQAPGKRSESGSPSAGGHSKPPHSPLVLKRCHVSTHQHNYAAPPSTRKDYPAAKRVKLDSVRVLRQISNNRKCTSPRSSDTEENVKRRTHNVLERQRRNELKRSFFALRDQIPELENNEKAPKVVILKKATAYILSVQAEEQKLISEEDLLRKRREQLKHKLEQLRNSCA
UniProt P04637, whole entry, looked up: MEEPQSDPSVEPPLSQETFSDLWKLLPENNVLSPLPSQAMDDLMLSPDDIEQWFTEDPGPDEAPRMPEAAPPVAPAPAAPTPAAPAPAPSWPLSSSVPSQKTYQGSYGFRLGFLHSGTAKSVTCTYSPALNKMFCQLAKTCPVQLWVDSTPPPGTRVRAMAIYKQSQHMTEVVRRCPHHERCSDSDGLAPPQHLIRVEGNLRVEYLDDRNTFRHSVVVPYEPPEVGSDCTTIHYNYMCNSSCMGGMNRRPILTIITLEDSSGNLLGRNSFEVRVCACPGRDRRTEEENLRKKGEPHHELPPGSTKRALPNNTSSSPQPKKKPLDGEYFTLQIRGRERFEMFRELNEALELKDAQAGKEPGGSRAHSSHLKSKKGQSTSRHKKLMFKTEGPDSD
UniProt Q03181: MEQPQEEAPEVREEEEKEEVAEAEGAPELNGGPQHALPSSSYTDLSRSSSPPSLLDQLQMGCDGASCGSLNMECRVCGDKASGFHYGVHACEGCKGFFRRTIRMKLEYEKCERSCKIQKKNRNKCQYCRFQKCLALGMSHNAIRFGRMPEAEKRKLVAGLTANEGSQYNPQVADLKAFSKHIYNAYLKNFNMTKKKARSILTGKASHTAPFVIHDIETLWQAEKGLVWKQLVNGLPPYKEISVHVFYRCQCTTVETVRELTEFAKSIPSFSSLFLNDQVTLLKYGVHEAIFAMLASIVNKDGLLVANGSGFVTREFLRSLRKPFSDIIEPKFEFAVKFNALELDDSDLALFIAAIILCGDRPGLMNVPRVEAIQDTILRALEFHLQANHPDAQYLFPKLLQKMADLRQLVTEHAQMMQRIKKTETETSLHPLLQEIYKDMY
UniProt P43354, whole entry, looked up: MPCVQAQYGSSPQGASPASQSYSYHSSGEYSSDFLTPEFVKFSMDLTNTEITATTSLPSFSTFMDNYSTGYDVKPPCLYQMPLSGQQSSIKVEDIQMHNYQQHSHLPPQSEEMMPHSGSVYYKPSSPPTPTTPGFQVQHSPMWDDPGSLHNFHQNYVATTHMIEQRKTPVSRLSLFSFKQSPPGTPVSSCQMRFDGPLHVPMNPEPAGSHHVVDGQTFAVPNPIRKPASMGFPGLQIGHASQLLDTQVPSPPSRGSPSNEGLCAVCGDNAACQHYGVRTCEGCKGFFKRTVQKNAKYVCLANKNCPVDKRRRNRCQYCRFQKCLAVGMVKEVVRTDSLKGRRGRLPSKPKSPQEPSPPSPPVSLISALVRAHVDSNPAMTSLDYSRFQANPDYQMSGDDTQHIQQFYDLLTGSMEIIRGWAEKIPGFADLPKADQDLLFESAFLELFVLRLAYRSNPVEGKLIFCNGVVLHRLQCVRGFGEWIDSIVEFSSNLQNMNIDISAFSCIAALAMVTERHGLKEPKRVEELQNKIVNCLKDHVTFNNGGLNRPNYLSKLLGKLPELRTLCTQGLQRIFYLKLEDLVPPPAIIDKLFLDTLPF
UniProt Q07869: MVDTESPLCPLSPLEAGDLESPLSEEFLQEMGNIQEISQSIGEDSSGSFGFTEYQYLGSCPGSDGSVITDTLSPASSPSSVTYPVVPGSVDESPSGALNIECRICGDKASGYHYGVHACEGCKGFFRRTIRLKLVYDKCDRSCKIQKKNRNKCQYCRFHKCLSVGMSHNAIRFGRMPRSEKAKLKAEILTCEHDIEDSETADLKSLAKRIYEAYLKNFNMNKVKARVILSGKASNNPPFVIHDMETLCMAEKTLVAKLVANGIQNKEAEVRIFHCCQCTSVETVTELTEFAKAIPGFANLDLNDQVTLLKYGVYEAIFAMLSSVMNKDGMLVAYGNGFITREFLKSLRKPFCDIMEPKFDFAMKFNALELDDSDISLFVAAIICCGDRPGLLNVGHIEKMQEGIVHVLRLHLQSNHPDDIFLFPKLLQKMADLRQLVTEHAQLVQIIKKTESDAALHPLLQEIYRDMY
UniProt P10826, whole entry, looked up: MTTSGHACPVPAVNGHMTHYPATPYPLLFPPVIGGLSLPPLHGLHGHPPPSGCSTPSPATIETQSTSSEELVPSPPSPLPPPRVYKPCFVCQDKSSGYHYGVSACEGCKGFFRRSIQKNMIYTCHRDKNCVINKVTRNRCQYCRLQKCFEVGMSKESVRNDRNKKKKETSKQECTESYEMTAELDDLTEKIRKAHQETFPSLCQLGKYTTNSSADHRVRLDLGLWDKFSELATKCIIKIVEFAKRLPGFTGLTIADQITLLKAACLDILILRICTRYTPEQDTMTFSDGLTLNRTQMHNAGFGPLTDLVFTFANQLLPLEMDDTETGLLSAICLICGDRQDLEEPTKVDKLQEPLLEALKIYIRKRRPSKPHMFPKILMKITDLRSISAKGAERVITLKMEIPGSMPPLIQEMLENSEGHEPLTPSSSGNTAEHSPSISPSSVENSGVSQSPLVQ
UniProt P10276, whole entry, looked up: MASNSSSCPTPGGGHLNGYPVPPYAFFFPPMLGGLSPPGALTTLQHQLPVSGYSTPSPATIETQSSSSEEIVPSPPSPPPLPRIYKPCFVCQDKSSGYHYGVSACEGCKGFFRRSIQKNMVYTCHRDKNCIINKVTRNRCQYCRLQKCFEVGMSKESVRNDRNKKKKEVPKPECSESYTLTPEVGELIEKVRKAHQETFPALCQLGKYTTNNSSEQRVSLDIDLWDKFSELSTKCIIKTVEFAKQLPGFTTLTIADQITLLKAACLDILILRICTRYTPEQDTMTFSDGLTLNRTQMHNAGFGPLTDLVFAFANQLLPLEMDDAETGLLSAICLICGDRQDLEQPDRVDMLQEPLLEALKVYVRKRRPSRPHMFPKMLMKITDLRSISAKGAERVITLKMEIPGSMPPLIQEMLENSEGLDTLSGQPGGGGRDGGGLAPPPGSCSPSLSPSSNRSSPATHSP

Key:
[1] = biological target: Transcriptional activator Myb (Homo sapiens) (UniProt P10242); test: ATG_Myb_CIS: Attagene CIS-FACTORIAL HepG2 Assay for human Myeloblastosis (Myb) Proto-Oncogene Transcription Factor (AID 2282986); settings: HepG2 Attagene CIS-FACTORIAL Myb reporter transcription; actives raise or lower the signal
Procedure, shortened: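 Fluorescence signals from capillary electrophoresis of RT-PCR-amplified reporter cDNA give the read-out. Cells: HepG2 transfected with multiple cis-regulated reporter units. Exposure lasts 24 hours; DMSO defines baseline for gain or loss of signal.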

[2] = biological target: Nuclear respiratory factor 1 (Homo sapiens) (UniProt Q16656); test: ATG_NRF1_CIS: Attagene CIS-FACTORIAL HepG2 Assay for human Nuclear Respiratory Factor 1 (NRF1) Orphan Gene (AID 2282987); settings: HepG2 NRF1 cis-element reporter, Attagene multiplex; actives raise or lower the signal
Procedure, shortened: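 Transcriptional reporter readout, one component of a 52-endpoint multiplexed HepG2 panel. Exposure 24 h; mRNA detected via RT-PCR and fluorescent capillary electrophoresis; fitting in both directions against DMSO.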

[3] = ATG_NFI_CIS: Attagene CIS-FACTORIAL HepG2 Assay for human Nuclear Factor I (NFI) (AID 2282989); settings: HepG2 cis-regulatory reporter, NFI response element transcription; actives raise or lower the signal
Procedure, shortened: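 Reporter transcripts were measured by RT-PCR with fluorescent primer extension and capillary electrophoresis 24 h post-treatment. HepG2 cells carried transiently transfected cis-regulated reporter constructs reporting endogenous factor activity; gain or loss fitted against DMSO baseline.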

[4] = biological target: Myc proto-oncogene protein (Homo sapiens) (UniProt P01106); test: ATG_Myc_CIS: Attagene CIS-FACTORIAL HepG2 Assay for human Myelocytomatosis (Myc) Proto-Oncogene Transcription Factor (AID 2282990); settings: HepG2, Attagene cis-reporter transcription factor activity; actives raise or lower the signal
Procedure, shortened: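 Fluorescence intensity of reporter-specific cDNA fragments, separated by capillary electrophoresis, gives the signal. Transfected HepG2 cells carrying cis-promoter reporter constructs are incubated with compound for 24 h; DMSO serves as baseline.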

[5] = ATG_NF_kB_CIS: Attagene CIS-FACTORIAL HepG2 Assay for human Nuclear Factor Kappa B (NF-kB) (AID 2282991); settings: HepG2 Attagene cis-factorial NF-kB reporter mRNA; actives raise or lower the signal
Procedure, shortened: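 HepG2, transient multi-reporter transfection, cis promoter elements (endogenous TFs). 24 h exposure. Total RNA → RT → PCR → 6-FAM label → HpaI → CE. Gain/loss vs DMSO.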

[6] = ATG_NRF2_ARE_CIS: Attagene CIS-FACTORIAL HepG2 Assay for human Nuclear Factor Erythroid 2 Related Factor 2 (NFR2) response to Antioxidant Response Elements (ARE) (AID 2282992); settings: HepG2 Attagene ARE/NRF2 reporter, transcription factor activity; actives raise or lower the signal;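 as to AC50: reporter mRNA level measured by RT-PCR and capillary electrophoresis fluorescence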
Procedure, shortened: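 Readout: reporter mRNA quantified by RT-PCR plus FAM-labelled primer extension, HpaI digestion and capillary electrophoresis, 24 h after dosing transfected HepG2 cells. Gain or loss of signal is fitted bidirectionally against DMSO baseline.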

[7] = ATG_Oct_MLP_CIS: Attagene CIS-FACTORIAL HepG2 Assay for human Octamer-Binding Transcription Factor (Oct) (AID 2282993); settings: HepG2 Attagene cis-factorial Oct reporter, mRNA; actives raise or lower the signal
Procedure, shortened: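 Readout is reporter transcript level from RT-PCR with fluorescent primer extension and capillary electrophoresis, fitted in both directions against DMSO. Transfected HepG2 reporter units report endogenous factor activity after 24 h dosing.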

[8] = biological target: Cellular tumor antigen p53 (Homo sapiens) (UniProt P04637); test: ATG_p53_CIS: Attagene CIS-FACTORIAL HepG2 Assay for human p53 Transcription Factor (AID 2282994); settings: HepG2 p53 cis-element reporter, Attagene mRNA; actives raise or lower the signal
Procedure, shortened: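 Read-out: reporter mRNA by RT-PCR plus capillary electrophoresis with fluorescence detection. Human HepG2 liver cells carried transfected multi-reporter cis-element constructs, dosed 24 h. Gain or loss of signal fitted bidirectionally against DMSO control.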

[9] = ATG_M_32_TRANS: Attagene TRANS-FACTORIAL HepG2 Assay for M32 Transcription Factor (Internal Marker) (AID 2282984; active = hit-call score of the fitted dose curve at least 0.9, where 1 is the maximum;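 also: transcript level of a background control reporter unit measured by RT-PCR and capillary electrophoresis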); settings: HepG2 Attagene TRANS M32 internal marker reporter
Procedure, shortened: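 Internal-marker readout from a multiplexed transcription reporter panel. HepG2 cells were transfected with GAL4-UAS reporter units, treated 24 hours, and reporter transcript levels determined by fluorescence after RT-PCR and capillary separation.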

[10] = BSK_3C_TissueFactor: BioMAP Diversity Plus: 3C Assay for Tissue Factor Biomarker Activity (AID 2282997); settings: BioMAP 3C HUVEC, tissue factor biomarker readout; actives raise or lower the signal
Procedure, shortened: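 After a 24 h chemical exposure of primary human umbilical vein endothelial cells, Tissue Factor levels were quantified by ELISA.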

[11] = BSK_3C_uPAR: BioMAP Diversity Plus: 3C Assay for Urokinase-type plasminogen activator receptor (uPAR) Biomarker Activity (AID 2282998); settings: BioMAP 3C HUVEC, uPAR biomarker ELISA; actives raise or lower the signal
Procedure, shortened: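 Cell-surface uPAR on HUVEC (3C system) read by ELISA at 24 h post-treatment, with DMSO as baseline and fitting in both directions. Parallel cultures stained with SRB to flag overt cytotoxicity.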

[12] = BSK_3C_VCAM1: BioMAP Diversity Plus: 3C Assay for Vascular cell adhesion molecule 1 (VCAM1) Biomarker Activity (AID 2282999); settings: BioMAP 3C HUVEC, VCAM1 ELISA, cytokine-stimulated; actives raise or lower the signal
Procedure, shortened: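 HUVEC primary cells, 24 h compound exposure; VCAM-1 by ELISA; gain/loss of signal fitted bidirectionally vs DMSO baseline.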

[13] = BSK_4H_Eotaxin3: BioMAP Diversity Plus: 4H Assay for Eotaxin 3 Biomarker Activity (AID 2283000); settings: actives raise or lower the signal; primary human endothelial cells (HUVEC)
Procedure, shortened: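 Chemicals were added to human umbilical vein endothelium cultures, and Eotaxin-3 was quantified by ELISA at 24 h. Values were derived by bidirectional fitting with DMSO serving as negative control and activity baseline.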

[14] = biological target: human Peroxisome Proliferator-activated Receptor delta (PPARd), PPARD (gene 5467) (UniProt Q03181); test: ATG_PPARd_TRANS: Attagene TRANS-FACTORIAL HepG2 Assay for human Peroxisome Proliferator-activated Receptor delta (PPARd) (AID 2283002; active = hit-call score of the fitted dose curve at least 0.9, where 1 is the maximum)
Procedure, shortened: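 Fluorescence from capillary electrophoresis of labelled RT-PCR reporter fragments gives the signal; DMSO sets baseline. Cells: HepG2 transiently carrying GAL4-UAS reporter units plus chimeric nuclear receptor-Gal4 proteins, exposed to chemicals for 24 h.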

[15] = read-out: Intercellular Adhesion Molecule 1 (ICAM1), ICAM1 (gene 3383); test: BSK_3C_ICAM1: BioMAP Diversity Plus: 3C Assay for Intercellular Adhesion Molecule 1 (ICAM1) Biomarker Activity (AID 2283003); settings: actives raise or lower the signal; primary human endothelial cells (HUVEC)
Procedure, shortened: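 ELISA readout of ICAM1 in human umbilical vein endothelial cells in the 3C system, taken 24 h post-dose. Gain or loss of signal versus DMSO was fitted in both directions, with SRB total-protein staining run in parallel.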

[16] = BSK_3C_Proliferation: Cell Proliferation Assessment in the BioMAP Diversity Plus: 3C Assay (AID 2283006); settings: primary human endothelial cells (HUVEC);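 as to AC50: potency may reflect either rise or fall in cell number versus DMSO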
Procedure, shortened: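 Proliferation as total protein: sulforhodamine B (0.1%) stain of TCA-fixed subconfluent human umbilical vein endothelial cells, absorbance 560 nm, 48 h after dosing. Activity fitted in both directions against DMSO baseline.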

[17] = biological target: Nuclear receptor subfamily 4 group A member 2 (Homo sapiens) (UniProt P43354); test: ATG_NURR1_TRANS: Attagene TRANS-FACTORIAL HepG2 Assay for human Nuclear Receptor Related Protein 1 (NURR1) (AID 2282985; active = hit-call score of the fitted dose curve at least 0.9, where 1 is the maximum); settings: HepG2 Attagene TRANS reporter, mRNA readout
Procedure, shortened: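 Endpoint: reporter mRNA increase relative to DMSO. HepG2 cells transfected with reporter units, treated 24 h; RNA processed by RT-PCR, labelling, HpaI digestion and capillary electrophoresis.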

[18] = biological target: human Peroxisome Proliferator-activated Receptor alpha (PPARa), PPARA (gene 5465) (UniProt Q07869); test: ATG_PPARa_TRANS: Attagene TRANS-FACTORIAL HepG2 Assay for human Peroxisome Proliferator-activated Receptor alpha (PPARa) (AID 2283001; active = hit-call score of the fitted dose curve at least 0.9, where 1 is the maximum)
Procedure, shortened: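 HepG2, transient MRTU transfection, 24 h treatment. RT-PCR → FAM labelling → capillary electrophoresis. Fit vs DMSO, positive direction.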

[19] = biological target: human Retinoic Acid Receptor beta (RARb), RARB (gene 5915) (UniProt P10826); test: ATG_RARb_TRANS: Attagene TRANS-FACTORIAL HepG2 Assay for human Retinoic Acid Receptor beta (AID 2283004; active = hit-call score of the fitted dose curve at least 0.9, where 1 is the maximum)
Procedure, shortened: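 Transient transfection of HepG2 with multiple reporter units → chemical dosing, 24 h → total RNA isolation → RT with oligo(dT) → reporter-specific PCR, 6-FAM primer extension, HpaI digest → capillary electrophoresis. Positive direction vs DMSO control.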

[20] = biological target: Retinoic acid receptor alpha (Homo sapiens) (UniProt P10276); test: ATG_RARa_TRANS: Attagene TRANS-FACTORIAL HepG2 Assay for human Retinoic Acid Receptor alpha (RARa) (AID 2283005; active = hit-call score of the fitted dose curve at least 0.9, where 1 is the maximum)
Procedure, shortened: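 HepG2 transiently transfected with multiplex GAL4-UAS reporter units including a human RARa–GAL4 chimera; 24 h compound exposure. Reporter mRNA quantified by RT-PCR, 6-FAM labeling and capillary electrophoresis; gain of signal versus DMSO.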

Measured: AC50

CCCCC(CC)CO[P+](=O)OCC(CC)CCCC (centres undefined)
inactive: [1] | [2] | [3] | [4] | [5] | [6] | [7] | [8]

O=[N+]([O-])c1ccc([N+](=O)[O-])cc1
inactive: [9] | [5] | [8] | [10] | [11] | [13] | [14] | [15]
active: [1] 149 µM | [2] 163 µM | [3] 60.6 µM | [4] 100 µM | [6] 70.8 µM | [7] 62.9 µM | [12] 7.91 µM | [16] 20 µM

CC(C)OP(=S)(OC(C)C)SCCNS(=O)(=O)c1ccccc1
inactive: [17] | [1] | [2] | [3] | [4] | [7] | [10] | [18] | [15]
active: [6] 98.7 nM and 71.2 nM and 95.8 nM | [10] 26.6 µM and 34.2 µM | [12] 34.2 µM and 31 µM and 37 µM | [13] 31.3 µM and 37.8 µM | [15] 32.8 µM

O=C(Cl)OCCOC(=O)Cl
inactive: [1] | [2] | [3] | [4] | [5] | [6] | [7] | [8] | [18] | [19]

CC(C)CCCCCCCOP(OCCCCCCCC(C)C)Oc1ccccc1
active: [6] 60.3 µM
inactive: [9] | [1] | [2] | [3] | [4] | [5] | [7] | [8] | [18] | [14]

O=[As]c1ccccc1 (centres undefined)
active: [1] 0.412 µM | [3] 0.279 µM | [4] 0.278 µM | [6] 0.104 µM | [7] 0.31 µM
inactive: [9] | [17]

O=[P+](Oc1ccccc1)Oc1ccccc1
inactive: [9] | [1] | [2] | [3] | [4] | [6] | [7] | [8] | [14] | [19]

CCCCO[P+](=O)OCCCC
inactive: [9] | [1] | [2] | [3] | [4] | [5] | [6] | [7] | [8] | [18]

N#CSc1ccc([N+](=O)[O-])cc1[N+](=O)[O-]
inactive: [9] | [1] | [2] | [3] | [4] | [7] | [8] | [18] | [14]

O=[p+]1oc2ccccc2c2ccccc21 (centres undefined)
inactive: [9] | [17] | [1] | [2] | [3] | [4] | [5] | [6] | [7] | [18]

CCCCOP(OCCCC)OCCCC
inactive: [1] | [2] | [3] | [4] | [5] | [6] | [7] | [8] | [14] | [19] | [20]

O=C(Cl)Oc1ccccc1
inactive: [9] | [1] | [2] | [3] | [4] | [5] | [7] | [8] | [10] | [11] | [12] | [13] | [18] | [14] | [15] | [19] | [20] | [16]
active: [6] 37.8 µM

O=P(Cl)(Oc1ccccc1)Oc1ccccc1
inactive: [9] | [17] | [1] | [2] | [3] | [4] | [5] | [6] | [7] | [8] | [14]

CN(C(=O)Cc1cccc2occc12)[C@H]1CC[C@@]2(CCCO2)C[C@@H]1N1CCCC1
inactive: [9] | [1] | [2] | [3] | [4] | [6] | [7] | [8] | [10] | [11] | [12] | [13] | [15] | [20] | [16]
active: [5] 147 µM

Cc1cc([N+](=O)[O-])cc([N+](=O)[O-])c1O
inactive: [9] | [1] | [2] | [3] | [4] | [5] | [8] | [10] | [12] | [18] | [14] | [15] | [20] | [16]
active: [7] 100 µM | [11] 14.6 µM

ClP(Cl)c1ccccc1
inactive: [9] | [17] | [1] | [2] | [3] | [4] | [5] | [6] | [7] | [8] | [20]

O=C1C2CC=CCC2C(=O)N1SC(Cl)(Cl)C(Cl)Cl (centres undefined)
active: [10] 9.17 µM | [12] 8.85 µM | [16] 3.15 µM
inactive: [9] | [1] | [2] | [3] | [4] | [5] | [6] | [7] | [8] | [18] | [14] | [19]
